For one data set, the system named is soybean (GLXMA). The experiment in a line: Test 1 on herbicidal effects against weeds and phytotoxicity by upland soil treatment. It is filed as in vivo. The note with it: 50 gai/ha, 28th day. As for the experimental part:
(§1) In a plastic pot of 14 cm in length×23 cm in width×8 cm in depth, upland soil was filled, and seeds of soybean (GLXMA), corn (ZEAMX), Ipomoea lacunosa L. (IPOLA) and velvetleaf (ABUTH) were sown and covered with soil. […] Thereafter, cultivation was carried out in a greenhouse, and on the 28th day after the treatment, the herbicidal effects and phytotoxicity were examined in accordance with the standards as identified in Table 15.

Another data set relates to corn (ZEAMX). The description is as above. Particulars: 50 gai/ha, 28th day. It is filed as in vivo. As to the method: as §1

The record followed here is US8283291B2, “Herbicidal composition” (Kumiai Chemical Industry Co., Ltd., priority 2006, dated 2012).

For the molecule `CC(C)C1(C)N=C(c2nc3ccccc3cc2C(=O)O)NC1=O` (centres unmarked) [Imazaquin], the “phytotoxicity GLXMA” value in the data set on soybean (GLXMA) is 0 (Herbicidal effect or phytotoxicity of at least 0% and less than 10%). For the same molecule, in the data set on corn (ZEAMX), the “phytotoxicity ZEAMX” value was 6 (Herbicidal effect or phytotoxicity of at least 60% and less than 70%).
